This experiment concerns the target Acetyl-coenzyme A synthetase, cytoplasmic (Homo sapiens, UniProt Q9NR19).

By UniProt entry, the sequences of proteins in these tests, tags left out.
UniProt Q9NR19, whole entry: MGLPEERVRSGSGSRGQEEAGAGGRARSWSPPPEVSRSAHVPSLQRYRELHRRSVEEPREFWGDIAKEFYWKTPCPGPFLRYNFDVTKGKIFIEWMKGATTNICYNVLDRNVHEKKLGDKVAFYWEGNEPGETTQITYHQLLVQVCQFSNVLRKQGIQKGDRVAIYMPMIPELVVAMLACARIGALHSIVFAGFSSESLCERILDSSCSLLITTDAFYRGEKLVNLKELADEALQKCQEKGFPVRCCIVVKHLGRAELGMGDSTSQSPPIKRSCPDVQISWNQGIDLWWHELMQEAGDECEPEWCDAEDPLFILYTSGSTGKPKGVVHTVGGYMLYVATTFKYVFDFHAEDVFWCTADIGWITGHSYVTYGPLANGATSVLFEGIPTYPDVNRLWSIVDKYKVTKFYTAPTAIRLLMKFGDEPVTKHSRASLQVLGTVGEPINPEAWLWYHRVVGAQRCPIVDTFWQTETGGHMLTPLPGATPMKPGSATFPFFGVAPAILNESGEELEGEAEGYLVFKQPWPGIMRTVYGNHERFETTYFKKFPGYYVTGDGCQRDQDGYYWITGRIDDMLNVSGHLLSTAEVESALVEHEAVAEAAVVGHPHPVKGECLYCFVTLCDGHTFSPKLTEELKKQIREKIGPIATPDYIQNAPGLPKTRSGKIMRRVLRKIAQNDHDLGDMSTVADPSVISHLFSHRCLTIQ

Only a part of the results on these compounds is given; other tests are left out.

As usually defined, the IC50 is the point on the concentration scale where inhibition reaches its midpoint. A lower IC50 goes with greater potency in that assay. Molecule `COc1nc2nc(C(O)(c3ccccc3)c3ccccc3)n(CCN)c2cc1-c1nnn[nH]1` gave an IC50 of 55 nM. This lies in the double-digit nanomolar range.

For the origin of these results see BindingDB's records for US20240009175.
